Experimental data reported in US20260115185A1, “QUINOLINE DERIVATIVES WHICH ACT AS KAPPA-OPIOID RECEPTOR ANTAGONISTS” (The Scripps Research Institute, priority 2023, published 2026).

Protein sequences, listed by entry. Tags and fused reporters are not part of them.
UniProt P41145, whole entry: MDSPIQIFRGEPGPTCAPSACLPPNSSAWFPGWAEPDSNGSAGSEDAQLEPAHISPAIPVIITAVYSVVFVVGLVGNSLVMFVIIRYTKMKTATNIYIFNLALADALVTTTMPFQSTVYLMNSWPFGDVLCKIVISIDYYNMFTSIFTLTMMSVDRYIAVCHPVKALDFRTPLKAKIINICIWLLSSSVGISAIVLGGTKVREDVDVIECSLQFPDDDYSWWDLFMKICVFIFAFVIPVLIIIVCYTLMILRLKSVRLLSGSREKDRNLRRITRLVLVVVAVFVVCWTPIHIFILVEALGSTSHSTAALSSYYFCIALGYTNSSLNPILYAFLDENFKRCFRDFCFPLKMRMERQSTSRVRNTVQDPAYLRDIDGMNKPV
UniProt P35372, whole entry: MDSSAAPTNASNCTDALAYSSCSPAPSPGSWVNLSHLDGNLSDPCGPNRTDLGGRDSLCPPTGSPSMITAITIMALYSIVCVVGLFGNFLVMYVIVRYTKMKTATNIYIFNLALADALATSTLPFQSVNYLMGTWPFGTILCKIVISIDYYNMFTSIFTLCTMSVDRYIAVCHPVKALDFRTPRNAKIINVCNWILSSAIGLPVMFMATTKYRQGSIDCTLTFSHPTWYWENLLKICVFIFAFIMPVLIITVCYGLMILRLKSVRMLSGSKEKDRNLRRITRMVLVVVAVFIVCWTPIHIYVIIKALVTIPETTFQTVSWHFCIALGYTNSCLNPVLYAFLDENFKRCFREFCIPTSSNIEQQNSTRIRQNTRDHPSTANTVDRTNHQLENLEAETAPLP

How the values were obtained:
[1] = target: kappa opioid receptor (KOR) (Homo sapiens, UniProt P41145); assay: OPRKappa 1 Tango B-Arrestin Assay, antagonist mode (Tango OPRK1-bla U2OS cells, U50488 EC80 challenge); format: cell-based
mu opioid receptor (MOR) = mu opioid receptor (MOR) (Homo sapiens, UniProt P35372); assay: OPRMu1 Discover X β-arrestin Assay, antagonist mode (U2OS cells, DAMGO EC80 challenge); format: cell-based; details: read-out: MOR IC50

**Q.** For `CCc1cc(-c2ccn(C)n2)c2nc(N3CCC(N[C@H]4CCOC[C@@H]4F)CC3)c(-c3ccn(C)n3)c(C)c2c1`, which “Selectivity (MOR/KOR)” value ([1]; Kappa selectivity, MOR IC50 / KOR IC50) is on record?
**A.** +++ (between 100- to 1000-fold selective)

**Q.** And the IC50 ([1]; read-out: KOR IC50, antagonist mode, Tango OPRK1-bla U2OS cells, 6 nM U50488 challenge)?
**A.** 1 to 10 nM

**Q.** What about the IC50 (mu opioid receptor (MOR)) of the same compound?
**A.** > 1000 nM
